Patent EP4834897A1, “COMPOUNDS WITH TWO AZAHETEROCYCLES SUBSTITUTED ISOINDOLINONE SKELETON AND USES THEREOF” (dated 2026)

The chains behind the UniProt entries cited, without tags or fusion partners.
UniProt P15170, whole entry: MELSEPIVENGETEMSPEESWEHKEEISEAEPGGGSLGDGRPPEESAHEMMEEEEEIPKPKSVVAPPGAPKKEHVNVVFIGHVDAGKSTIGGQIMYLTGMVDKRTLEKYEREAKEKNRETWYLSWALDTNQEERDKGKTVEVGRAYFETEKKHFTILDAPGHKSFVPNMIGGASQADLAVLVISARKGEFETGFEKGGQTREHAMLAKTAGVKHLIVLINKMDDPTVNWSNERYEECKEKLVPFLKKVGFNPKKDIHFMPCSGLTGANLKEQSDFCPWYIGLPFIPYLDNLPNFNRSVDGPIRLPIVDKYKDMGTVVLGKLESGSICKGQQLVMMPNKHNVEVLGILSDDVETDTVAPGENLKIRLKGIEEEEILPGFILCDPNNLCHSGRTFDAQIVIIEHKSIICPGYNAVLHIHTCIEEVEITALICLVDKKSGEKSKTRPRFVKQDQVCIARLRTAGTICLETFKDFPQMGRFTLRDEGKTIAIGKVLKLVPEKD
UniProt Q96SW2, whole entry: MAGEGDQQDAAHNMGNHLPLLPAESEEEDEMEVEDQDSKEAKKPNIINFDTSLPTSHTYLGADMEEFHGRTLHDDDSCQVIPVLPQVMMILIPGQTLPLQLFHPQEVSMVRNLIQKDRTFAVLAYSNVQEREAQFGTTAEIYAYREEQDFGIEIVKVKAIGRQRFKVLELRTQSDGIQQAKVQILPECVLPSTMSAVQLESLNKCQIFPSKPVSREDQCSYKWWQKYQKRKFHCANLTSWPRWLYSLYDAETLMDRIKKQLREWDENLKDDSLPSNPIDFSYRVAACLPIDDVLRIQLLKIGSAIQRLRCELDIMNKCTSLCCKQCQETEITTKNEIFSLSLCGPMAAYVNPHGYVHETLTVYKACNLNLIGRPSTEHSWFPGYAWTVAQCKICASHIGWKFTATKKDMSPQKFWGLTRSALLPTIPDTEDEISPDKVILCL
UniProt Q13422, whole entry: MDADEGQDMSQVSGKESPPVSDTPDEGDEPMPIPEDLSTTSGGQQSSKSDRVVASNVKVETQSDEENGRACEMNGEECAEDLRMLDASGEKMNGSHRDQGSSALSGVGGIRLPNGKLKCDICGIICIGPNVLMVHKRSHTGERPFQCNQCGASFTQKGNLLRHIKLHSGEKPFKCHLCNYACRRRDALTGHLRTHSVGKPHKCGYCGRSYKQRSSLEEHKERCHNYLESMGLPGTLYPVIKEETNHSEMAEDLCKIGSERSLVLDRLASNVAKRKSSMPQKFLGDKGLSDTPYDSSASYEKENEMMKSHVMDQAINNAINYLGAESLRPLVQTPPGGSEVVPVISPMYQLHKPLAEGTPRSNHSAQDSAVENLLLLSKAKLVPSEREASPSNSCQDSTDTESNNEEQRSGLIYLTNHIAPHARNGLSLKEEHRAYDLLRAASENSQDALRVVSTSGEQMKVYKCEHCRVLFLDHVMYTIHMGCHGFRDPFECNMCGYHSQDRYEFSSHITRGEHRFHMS
UniProt P30291, whole entry: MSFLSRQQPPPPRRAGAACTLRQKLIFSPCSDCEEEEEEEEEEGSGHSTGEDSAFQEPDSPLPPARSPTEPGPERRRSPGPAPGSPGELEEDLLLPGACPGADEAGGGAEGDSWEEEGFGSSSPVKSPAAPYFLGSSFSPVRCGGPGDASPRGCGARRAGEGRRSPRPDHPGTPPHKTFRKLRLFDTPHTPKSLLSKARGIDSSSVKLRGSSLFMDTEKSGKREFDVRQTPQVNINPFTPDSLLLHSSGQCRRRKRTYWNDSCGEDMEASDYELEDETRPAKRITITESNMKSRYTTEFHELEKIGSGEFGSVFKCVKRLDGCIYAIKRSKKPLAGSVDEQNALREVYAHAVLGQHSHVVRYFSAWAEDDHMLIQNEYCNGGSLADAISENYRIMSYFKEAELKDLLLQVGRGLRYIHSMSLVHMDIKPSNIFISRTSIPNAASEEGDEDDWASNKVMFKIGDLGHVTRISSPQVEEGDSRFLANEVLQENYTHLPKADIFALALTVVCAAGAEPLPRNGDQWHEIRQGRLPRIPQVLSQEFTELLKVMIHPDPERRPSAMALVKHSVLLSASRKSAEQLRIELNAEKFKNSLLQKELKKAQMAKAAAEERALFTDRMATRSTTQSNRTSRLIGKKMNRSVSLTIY
UniProt Q9UKT9, whole entry: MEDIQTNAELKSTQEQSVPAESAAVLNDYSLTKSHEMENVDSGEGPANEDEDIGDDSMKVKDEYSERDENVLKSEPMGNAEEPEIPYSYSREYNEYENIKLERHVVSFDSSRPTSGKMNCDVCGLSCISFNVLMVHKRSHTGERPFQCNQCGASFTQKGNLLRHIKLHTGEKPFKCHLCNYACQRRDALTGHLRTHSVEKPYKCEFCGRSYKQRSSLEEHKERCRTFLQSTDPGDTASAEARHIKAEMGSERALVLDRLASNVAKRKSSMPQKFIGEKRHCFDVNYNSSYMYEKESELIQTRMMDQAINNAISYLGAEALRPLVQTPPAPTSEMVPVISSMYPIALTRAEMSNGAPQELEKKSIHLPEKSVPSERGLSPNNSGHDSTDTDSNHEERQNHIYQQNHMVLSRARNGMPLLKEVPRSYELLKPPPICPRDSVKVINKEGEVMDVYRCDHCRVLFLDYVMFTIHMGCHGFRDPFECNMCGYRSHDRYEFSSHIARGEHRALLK
UniProt Q9UKS7, whole entry: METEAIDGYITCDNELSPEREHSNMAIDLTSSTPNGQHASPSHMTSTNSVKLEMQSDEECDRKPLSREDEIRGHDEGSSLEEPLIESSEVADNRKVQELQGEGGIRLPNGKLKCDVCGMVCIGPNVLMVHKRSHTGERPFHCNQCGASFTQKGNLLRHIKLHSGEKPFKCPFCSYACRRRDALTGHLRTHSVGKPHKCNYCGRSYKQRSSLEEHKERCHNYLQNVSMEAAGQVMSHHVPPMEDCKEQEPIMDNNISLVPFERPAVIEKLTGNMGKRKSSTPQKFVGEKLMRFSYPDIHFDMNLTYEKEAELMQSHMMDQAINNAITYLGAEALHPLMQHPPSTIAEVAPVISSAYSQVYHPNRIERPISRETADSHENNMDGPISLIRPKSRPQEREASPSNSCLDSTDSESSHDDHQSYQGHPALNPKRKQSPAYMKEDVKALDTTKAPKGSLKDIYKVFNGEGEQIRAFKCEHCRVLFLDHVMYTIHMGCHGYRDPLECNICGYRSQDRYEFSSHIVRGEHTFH
UniProt P48729, whole entry: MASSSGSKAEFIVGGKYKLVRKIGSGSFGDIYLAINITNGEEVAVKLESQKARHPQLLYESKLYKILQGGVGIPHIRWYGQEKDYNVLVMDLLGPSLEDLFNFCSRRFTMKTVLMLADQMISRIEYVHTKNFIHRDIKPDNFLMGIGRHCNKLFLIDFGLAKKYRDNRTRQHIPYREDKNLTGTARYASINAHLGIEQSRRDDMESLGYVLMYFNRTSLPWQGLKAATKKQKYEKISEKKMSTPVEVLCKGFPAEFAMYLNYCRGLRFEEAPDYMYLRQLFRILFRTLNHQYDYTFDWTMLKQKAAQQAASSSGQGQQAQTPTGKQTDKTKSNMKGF
UniProt Q16531, whole entry partner: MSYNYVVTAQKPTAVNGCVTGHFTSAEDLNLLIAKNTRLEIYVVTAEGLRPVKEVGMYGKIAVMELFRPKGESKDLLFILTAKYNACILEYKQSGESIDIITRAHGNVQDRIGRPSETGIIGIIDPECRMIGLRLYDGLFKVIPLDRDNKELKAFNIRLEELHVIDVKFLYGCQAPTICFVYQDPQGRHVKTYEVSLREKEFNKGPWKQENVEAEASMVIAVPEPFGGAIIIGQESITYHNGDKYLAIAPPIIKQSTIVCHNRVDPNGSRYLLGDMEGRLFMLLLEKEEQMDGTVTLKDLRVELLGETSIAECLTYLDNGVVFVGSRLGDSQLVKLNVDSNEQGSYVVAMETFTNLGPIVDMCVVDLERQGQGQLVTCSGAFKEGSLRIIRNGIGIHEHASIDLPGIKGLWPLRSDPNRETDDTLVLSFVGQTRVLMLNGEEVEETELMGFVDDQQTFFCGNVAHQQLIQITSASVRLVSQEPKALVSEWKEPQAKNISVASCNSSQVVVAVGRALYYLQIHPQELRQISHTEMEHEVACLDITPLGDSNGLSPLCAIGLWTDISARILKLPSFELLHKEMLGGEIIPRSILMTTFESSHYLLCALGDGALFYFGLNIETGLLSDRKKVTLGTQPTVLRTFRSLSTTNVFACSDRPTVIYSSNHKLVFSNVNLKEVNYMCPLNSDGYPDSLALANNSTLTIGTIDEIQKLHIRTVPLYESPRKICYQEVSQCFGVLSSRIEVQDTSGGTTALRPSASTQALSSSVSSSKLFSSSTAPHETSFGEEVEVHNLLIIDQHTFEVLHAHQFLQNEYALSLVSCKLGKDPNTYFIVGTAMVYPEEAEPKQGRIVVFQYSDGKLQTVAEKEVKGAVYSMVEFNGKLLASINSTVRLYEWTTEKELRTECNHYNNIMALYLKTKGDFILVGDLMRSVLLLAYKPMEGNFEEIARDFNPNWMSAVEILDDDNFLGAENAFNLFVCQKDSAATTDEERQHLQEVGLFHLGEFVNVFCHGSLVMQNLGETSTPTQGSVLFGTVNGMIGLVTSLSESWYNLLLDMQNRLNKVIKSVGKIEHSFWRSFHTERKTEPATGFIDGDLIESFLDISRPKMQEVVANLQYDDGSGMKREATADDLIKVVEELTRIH

Each compound was assayed against GSPT1 (Homo sapiens, UniProt P15170+Q96SW2) (assay: Western blot assay of substrate protein degradation in hPBMCs). Details: 24 hours treatment, compounds at 50 nM and 500 nM (concentration behind the class not stated).

Row | SMILES | substrate protein remaining % (GSPT1)
1 | O=C1CCC(N2Cc3c(C(=O)N4CCC(N5CC=C(c6cccc(Cl)c6Cl)CC5)C(F)(F)C4)cccc3C2=O)C(=O)N1 (centres unmarked) | A (0% ≤ substrate protein remaining % ≤ 80%)
2 | CC1(C)CCC(C(=O)N2CCN(C3CCN(Cc4cc5c(cc4F)C(=O)N(C4CCC(=O)NC4=O)C5)CC3(F)F)CC2)=C(c2ccc(Cl)cc2)C1 (centres unmarked) | A (0% ≤ substrate protein remaining % ≤ 80%)

These compounds were tested against IKZF1 (Homo sapiens, UniProt Q13422+Q96SW2) in the same assay as above. Details: 24 hours treatment, compounds at 50 nM and 500 nM (concentration behind the class not stated).

Row | SMILES | substrate protein remaining % (IKZF 1)
3 | O=C1CCC(N2Cc3c(C(=O)N4CCC(N5CC=C(c6cccc(Cl)c6Cl)CC5)C(F)(F)C4)cccc3C2=O)C(=O)N1 (centres unmarked) | A (0% ≤ substrate protein remaining % ≤ 80%)
4 | CC1(C)CCC(C(=O)N2CCN(C3CCN(Cc4cc5c(cc4F)C(=O)N(C4CCC(=O)NC4=O)C5)CC3(F)F)CC2)=C(c2ccc(Cl)cc2)C1 (centres unmarked) | B (80%< substrate protein remaining %≤ 100%)

What follows are compounds tested against WEE1 (Homo sapiens, UniProt P30291+Q96SW2) in the same assay as above. Details: 24 hours treatment, compounds at 50 nM and 500 nM (concentration behind the class not stated).

Row | SMILES | substrate protein remaining % (WEE1)
5 | O=C1CCC(N2Cc3c(C(=O)N4CCC(N5CC=C(c6cccc(Cl)c6Cl)CC5)C(F)(F)C4)cccc3C2=O)C(=O)N1 (centres unmarked) | A (0% ≤ substrate protein remaining % ≤ 80%)
6 | CC1(C)CCC(C(=O)N2CCN(C3CCN(Cc4cc5c(cc4F)C(=O)N(C4CCC(=O)NC4=O)C5)CC3(F)F)CC2)=C(c2ccc(Cl)cc2)C1 (centres unmarked) | A (0% ≤ substrate protein remaining % ≤ 80%)

These compounds were tested against IKZF3 (Homo sapiens, UniProt Q96SW2+Q9UKT9) in the same assay as above. Details: 24 hours treatment, compounds at 50 nM and 500 nM (concentration behind the class not stated).

Row | SMILES | substrate protein remaining % (IKZF3)
7 | O=C1CCC(N2Cc3c(C(=O)N4CCC(N5CC=C(c6cccc(Cl)c6Cl)CC5)C(F)(F)C4)cccc3C2=O)C(=O)N1 (centres unmarked) | A (0% ≤ substrate protein remaining % ≤ 80%)
8 | CC1(C)CCC(C(=O)N2CCN(C3CCN(Cc4cc5c(cc4F)C(=O)N(C4CCC(=O)NC4=O)C5)CC3(F)F)CC2)=C(c2ccc(Cl)cc2)C1 (centres unmarked) | B (80%< substrate protein remaining %≤ 100%)

Each compound was assayed against IKZF2 (Homo sapiens, UniProt Q96SW2+Q9UKS7) in the same assay as above. Details: 24 hours treatment, compounds at 50 nM and 500 nM (concentration behind the class not stated).

Row | SMILES | substrate protein remaining % (IKZF2)
9 | O=C1CCC(N2Cc3c(C(=O)N4CCC(N5CC=C(c6cccc(Cl)c6Cl)CC5)C(F)(F)C4)cccc3C2=O)C(=O)N1 (centres unmarked) | A (0% ≤ substrate protein remaining % ≤ 80%)
10 | CC1(C)CCC(C(=O)N2CCN(C3CCN(Cc4cc5c(cc4F)C(=O)N(C4CCC(=O)NC4=O)C5)CC3(F)F)CC2)=C(c2ccc(Cl)cc2)C1 (centres unmarked) | A (0% ≤ substrate protein remaining % ≤ 80%)

The compounds below were run against CK1α (Homo sapiens, UniProt P48729+Q96SW2) in the same assay as above. Details: 24 hours treatment, compounds at 50 nM and 500 nM (concentration behind the class not stated).

Row | SMILES | substrate protein remaining % (CK1a)
11 | O=C1CCC(N2Cc3c(C(=O)N4CCC(N5CC=C(c6cccc(Cl)c6Cl)CC5)C(F)(F)C4)cccc3C2=O)C(=O)N1 (centres unmarked) | A (0% ≤ substrate protein remaining % ≤ 80%)
12 | CC1(C)CCC(C(=O)N2CCN(C3CCN(Cc4cc5c(cc4F)C(=O)N(C4CCC(=O)NC4=O)C5)CC3(F)F)CC2)=C(c2ccc(Cl)cc2)C1 (centres unmarked) | A (0% ≤ substrate protein remaining % ≤ 80%)

What follows are compounds tested on Human myeloid monocytic leukemia cell (MV-4-11) (assay: Tumor cell proliferation inhibition (cell viability assay)). Details: MV-4-11 cells; 10 nM; 96 hours.

Row | SMILES | Inhibition Rate at 10 nM (%)
13 | O=C1CCC(N2Cc3c(C(=O)N4CCC(N5CC=C(c6cccc(Cl)c6Cl)CC5)C(F)(F)C4)cccc3C2=O)C(=O)N1 (centres unmarked) | 1a3 (10% ≤ 1a3 < 20%)
14 | CC1(C)CCC(C(=O)N2CCN(C3CCN(Cc4cc5c(cc4F)C(=O)N(C4CCC(=O)NC4=O)C5)CC3(F)F)CC2)=C(c2ccc(Cl)cc2)C1 (centres unmarked) | 1a9 (70% ≤ 1a9 < 80%)

Same assay, conditions: MV-4-11 cells; 500 nM; 96 hours

Row | SMILES | Inhibition Rate at 500 nM (%)
15 | O=C1CCC(N2Cc3c(C(=O)N4CCC(N5CC=C(c6cccc(Cl)c6Cl)CC5)C(F)(F)C4)cccc3C2=O)C(=O)N1 (centres unmarked) | 1a10 (80% ≤ 1a10 < 100%)
16 | CC1(C)CCC(C(=O)N2CCN(C3CCN(Cc4cc5c(cc4F)C(=O)N(C4CCC(=O)NC4=O)C5)CC3(F)F)CC2)=C(c2ccc(Cl)cc2)C1 (centres unmarked) | 1a10 (80% ≤ 1a10 < 100%)

What follows are compounds tested on Human acute T lymphocytic leukemia cell (Molt4) in the same assay as above. Details: Molt4 cells; 10 nM; 96 hours.

Row | SMILES | Inhibition Rate at 10 nM (%)
17 | O=C1CCC(N2Cc3c(C(=O)N4CCC(N5CC=C(c6cccc(Cl)c6Cl)CC5)C(F)(F)C4)cccc3C2=O)C(=O)N1 (centres unmarked) | 1c4 (10% ≤ 1c4 < 20%)
18 | CC1(C)CCC(C(=O)N2CCN(C3CCN(Cc4cc5c(cc4F)C(=O)N(C4CCC(=O)NC4=O)C5)CC3(F)F)CC2)=C(c2ccc(Cl)cc2)C1 (centres unmarked) | 1c5 (20% ≤ 1c5 < 30%)

Same assay, conditions: Molt4 cells; 500 nM; 96 hours

Row | SMILES | Inhibition Rate at 500 nM (%)
19 | O=C1CCC(N2Cc3c(C(=O)N4CCC(N5CC=C(c6cccc(Cl)c6Cl)CC5)C(F)(F)C4)cccc3C2=O)C(=O)N1 (centres unmarked) | 1c11 (80% ≤ 1c11 ≤ 100%)
20 | CC1(C)CCC(C(=O)N2CCN(C3CCN(Cc4cc5c(cc4F)C(=O)N(C4CCC(=O)NC4=O)C5)CC3(F)F)CC2)=C(c2ccc(Cl)cc2)C1 (centres unmarked) | 1c9 (60% ≤ 1c9 < 70%)

Each compound was assayed on Human colon cancer cell (SW620) in the same assay as above. Details: SW620 cells; 10 nM; 96 hours.

Row | SMILES | Inhibition Rate at 10 nM (%)
21 | O=C1CCC(N2Cc3c(C(=O)N4CCC(N5CC=C(c6cccc(Cl)c6Cl)CC5)C(F)(F)C4)cccc3C2=O)C(=O)N1 (centres unmarked) | 1d1 (0 < 1d1 < 5%)
22 | CC1(C)CCC(C(=O)N2CCN(C3CCN(Cc4cc5c(cc4F)C(=O)N(C4CCC(=O)NC4=O)C5)CC3(F)F)CC2)=C(c2ccc(Cl)cc2)C1 (centres unmarked) | 1d3 (10% ≤ 1d3 < 20%)

Same assay, conditions: SW620 cells; 500 nM; 96 hours

Row | SMILES | Inhibition Rate at 500 nM (%)
23 | O=C1CCC(N2Cc3c(C(=O)N4CCC(N5CC=C(c6cccc(Cl)c6Cl)CC5)C(F)(F)C4)cccc3C2=O)C(=O)N1 (centres unmarked) | 1d6 (40% ≤ 1d6 < 50%)
24 | CC1(C)CCC(C(=O)N2CCN(C3CCN(Cc4cc5c(cc4F)C(=O)N(C4CCC(=O)NC4=O)C5)CC3(F)F)CC2)=C(c2ccc(Cl)cc2)C1 (centres unmarked) | 1d7 (50% ≤ 1d7 < 60%)

These compounds were tested on Human multiple myeloma cell (MM.1S) in the same assay as above. Details: MM.1S cells; 10 nM; 96 hours.

Row | SMILES | Inhibition Rate at 10 nM (%)
25 | O=C1CCC(N2Cc3c(C(=O)N4CCC(N5CC=C(c6cccc(Cl)c6Cl)CC5)C(F)(F)C4)cccc3C2=O)C(=O)N1 (centres unmarked) | 1b4 (20% ≤ 1b4 < 32%)
26 | CC1(C)CCC(C(=O)N2CCN(C3CCN(Cc4cc5c(cc4F)C(=O)N(C4CCC(=O)NC4=O)C5)CC3(F)F)CC2)=C(c2ccc(Cl)cc2)C1 (centres unmarked) | 1b4 (20% ≤ 1b4 < 32%)

Same assay, conditions: MM.1S cells; 500 nM; 96 hours

Row | SMILES | Inhibition Rate at 500 nM (%)
27 | O=C1CCC(N2Cc3c(C(=O)N4CCC(N5CC=C(c6cccc(Cl)c6Cl)CC5)C(F)(F)C4)cccc3C2=O)C(=O)N1 (centres unmarked) | 1b9 (70% ≤ 1b9 < 80%)
28 | CC1(C)CCC(C(=O)N2CCN(C3CCN(Cc4cc5c(cc4F)C(=O)N(C4CCC(=O)NC4=O)C5)CC3(F)F)CC2)=C(c2ccc(Cl)cc2)C1 (centres unmarked) | 1b9 (70% ≤ 1b9 < 80%)

What follows are compounds tested against CRBN (Homo sapiens, UniProt Q96SW2) (assay: CRBN binding affinity by HTRF (CEREBLON BINDING kit)). Details: CRBN binding, HTRF, compound at 0.5 µM.

Row | SMILES | Inhibition Rate at 0.5 µM (%)
29 | O=C1CCC(N2Cc3c(C(=O)N4CCC(N5CC=C(c6cccc(Cl)c6Cl)CC5)C(F)(F)C4)cccc3C2=O)C(=O)N1 (centres unmarked) | a3 (30% < a3 ≤ 40%)
30 | CC1(C)CCC(C(=O)N2CCN(C3CCN(Cc4cc5c(cc4F)C(=O)N(C4CCC(=O)NC4=O)C5)CC3(F)F)CC2)=C(c2ccc(Cl)cc2)C1 (centres unmarked) | a6 (60% < a6 ≤ 70%)

Same assay, conditions: CRBN binding, HTRF, compound at 2 µM

Row | SMILES | Inhibition Rate at 2 µM (%)
31 | O=C1CCC(N2Cc3c(C(=O)N4CCC(N5CC=C(c6cccc(Cl)c6Cl)CC5)C(F)(F)C4)cccc3C2=O)C(=O)N1 (centres unmarked) | a7 (70% < a7 ≤80%)
32 | CC1(C)CCC(C(=O)N2CCN(C3CCN(Cc4cc5c(cc4F)C(=O)N(C4CCC(=O)NC4=O)C5)CC3(F)F)CC2)=C(c2ccc(Cl)cc2)C1 (centres unmarked) | a8 (80% < a8 ≤100%)
